Data reported in PMC9811660 (2022).

Protein sequences, listed by entry. Tags and fused reporters are not part of them. Lines headed by an entry give the natural chain unless they say otherwise; changes in a name come on top.
UniProt P63045: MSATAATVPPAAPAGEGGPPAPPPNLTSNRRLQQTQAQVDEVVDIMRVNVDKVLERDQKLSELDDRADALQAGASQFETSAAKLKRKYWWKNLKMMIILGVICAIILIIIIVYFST

Molecular target: SNARE complex bearing five mutations in SNAP-25 (K40A/D51A/E52A/E55A/D166A) (rat, UniProt P63045 28-89; P32851 191-256; P60881 7-83; P60881 140-204, K40A | D51A | E52A | E55A | D166A)
Assay: ITC

B1: Complexin-1 fragment spanning residues 48-73 (domain or fragment)
chain: RKAKYAKMEAEREVMRQGIRDKYGIK
**Q.** For B1, which Kd is on record?
**A.** 75.8 nM
